# Yeast mating assay B: variants of the scFv Ab-14

All variants were tested on one target, the spike HR2 peptide PDVDLGDISGINAS (SARS-CoV-2).

Parent: Ab-14, a human scFv built as VH, the linker GGGGSGGGGSGGGGS, VL. Only the CDRs of the heavy chain vary.
VH: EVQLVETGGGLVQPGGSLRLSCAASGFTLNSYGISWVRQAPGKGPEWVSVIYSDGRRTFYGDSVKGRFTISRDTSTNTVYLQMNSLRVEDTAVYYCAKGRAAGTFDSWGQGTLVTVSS
VL: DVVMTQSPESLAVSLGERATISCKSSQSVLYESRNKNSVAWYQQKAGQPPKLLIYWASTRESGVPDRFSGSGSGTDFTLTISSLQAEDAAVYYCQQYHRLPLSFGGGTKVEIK

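Phage display of a naive human antibody library on the peptide gave the parent. These sequences belong to a second round, designed from the earlier measurements on random variants of the parent. Several design methods are mixed in this list. AlphaSeq pools MATa yeast showing the antibodies with MATalpha yeast showing the peptide. Binding brings cells together so that they mate, and sequencing counts the barcode pairs among the diploids. The ratio of observed to expected reads was calibrated, replicate by replicate, on BCL2-family standards whose Kd was known from biolayer interferometry. There are six technical replicates.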

Variants are written as CDR1, CDR2 and CDR3 of the heavy chain (limits as in the source). Parent: GFTLNSYGIS, VIYSDGRRTFYGDSVK, GRAAGTFDS.
Variants here have more than six changes.
Kd is apparent (estimated from mating counts) and averaged on the log scale over replicates with a signal. Smaller is tighter.
An entry "nd" has no value in the source: the pair was not observed among the diploids in any replicate. This suggests poor binding but is not conclusive.
The parent sequence was in this pool as ten entries: three were never detected, three once, and four in most replicates, with averages from 2.2 nM to 240 nM.
The authors' rule: three or more of the six replicates give a measured affinity, fewer mean a poor binder.
As a blank, each scFv also met three strains without target: over all heavy chain designs, 1% of these pairings were detected, typically at 120 nM and seldom below 7.0 nM.
The range of this assay differs from that of the first round, and the authors advise against merging the two.

Variant GRNLDEYGIS / VIYADGQRTSYIDNVK / GGDSVHFDM showed nd (0 of 6 replicates). For GYNLQEYGVS / VIYADGRRSVYINSVK / GGSAGTFVF, the assay gave nd (0 of 6 replicates). Variant GFDLNEYGIS / VIYADGRRTAYTDSVK / GANAGTFDI showed 290 pM (6 of 6 replicates). For GFNLDEYGIS / VIYADGMRTAYADSVK / GNEAGTFDV, the assay gave 180 pM (6 of 6 replicates). Variant GFSFDEYGIS / VIYADGKRSFYADTVK / GNKDMAFDI showed nd (0 of 6 replicates). With GYDMEDYGIS / VIYADGSRAAYVDNFK / GELAGTFEM the result was nd (0 of 6 replicates). For GFDLNEYGIS / VIYADGKRTFYADSVK / GQLAGTFDS, the assay gave 600 pM (6 of 6 replicates). Variant GMNLGEYGIS / VIYADGVRQAYVDKVK / GFNGVDGLI gave nd (0 of 6 replicates).

For GFNLDEYGIS / VIYADGVRTAYADSVK / GNVAGTFDV, the assay gave 73 pM (6 of 6 replicates). Variant GYDLNEYGIS / VIYADGRRAAYIDDVK / GEVNDGVLV showed nd (0 of 6 replicates). For GFDLNEYGVS / VIYADGIRTSYTDSVK / GKVVDLLMA, the assay gave nd (0 of 6 replicates). For GFDLNEYGIS / VIYADGVRTFYSDSVK / GTNAGTFDI, the assay gave 380 pM (6 of 6 replicates). Variant GFDLDEYGIS / VIYADGRRTFYSDSVK / GENAGTFDV gave 570 pM (6 of 6 replicates). With GFCLNEYGIS / VIYSDGRRTFYSDSTK / GSAAGTFTV the result was nd (0 of 6 replicates). Variant GFDLNEYGIS / VIYADGVRTAYSDSVK / GNVAGTFDL gave 780 pM (6 of 6 replicates). Variant GFQLDEYGIS / VIYADGLRQYYAQNVK / GYNSFDLND gave nd (0 of 6 replicates).

With GFDLDEYGIS / VIYADGMRTFYADSVK / GEVAGTFDI the result was 2.2 nM (6 of 6 replicates). With GFDLDEYGIS / VIYADGMRTAYTDSVK / GNVAGTFDV the result was 850 pM (6 of 6 replicates). For GFDLDEYGIS / VIYADGRRTFYIDSVK / GEVAGTFDV, the assay gave 1.2 nM (6 of 6 replicates). For GFDIDEYGIS / VIYADGRRTAYKPKVK / GNNTGLVFI, the assay gave nd (0 of 6 replicates). With GFDLEEMGVS / VIYADGKRKAYKQKVK / GQTAGSFDV the result was 8.4 nM (6 of 6 replicates). Variant GDSLAEYGIS / VIYADGKRTAYKNKFK / GQVAGYFDV gave nd (0 of 6 replicates). For GFHLDEFGIS / VIYADGLRSSYADDAK / GENTGGFVV, the assay gave nd (0 of 6 replicates). Variant GFDLDEYGIS / VIYADGKRTAYSDSVK / GEVAGTFDQ showed 660 pM (6 of 6 replicates).

For GFDIQDYGIS / VIYADGSRTAYVNSAK / GLWGATLDV, the assay gave 5.3 nM (6 of 6 replicates). For GFDLQEYGIS / VIYADGLREAYSEKVK / GQLAGYFSF, the assay gave nd (0 of 6 replicates). Variant GFDLEDYGIS / VIYADGMRTAYTDSVK / GEVAGTFDV gave 590 pM (6 of 6 replicates). With GFDLNEYGVS / VIYADGFRTSYTDSVK / GFVVDLSMA the result was nd (0 of 6 replicates). For GFNLNEYGIS / VIYADGRRSFYSDSVK / GEVAGTFDV, the assay gave 230 pM (6 of 6 replicates). With GFDLNEYGIS / VIYADGVRTQYADSVK / GENAGTFDV the result was 480 pM (6 of 6 replicates). For GFDLDEYGIS / VIYADGMRTAYVDSVK / GNNAGTFDI, the assay gave 7.1 nM (6 of 6 replicates). With GFDLDEYGIS / VIYADGMRTAYTDNVK / GEVAGTFDV the result was 280 pM (5 of 6 replicates).

Variant GFNLDEYGIS / VIYADGRRTFYADSVK / GEQAGTFDT gave 950 pM (6 of 6 replicates). With GNSLDEYGIS / VIYADGMRTAYTDDFK / GVGSNTLVD the result was nd (0 of 6 replicates). Variant GFDLNEYGIS / VIYADGRRTYYADSVK / GEEAGTFNM gave 280 pM (6 of 6 replicates). With GFDLNEYGIS / VIYADGQRTYYADSVK / GNVAGTFDL the result was 32 pM (6 of 6 replicates). With GFDLDEYGIS / VIYADGMRTAYQDSVK / GNVAGTFDV the result was 300 pM (6 of 6 replicates). For GFNLNEYGIS / VIYADGNRNAYADSVK / GLHANFFAI, the assay gave nd (0 of 6 replicates). For GFDLNEYGIS / VIYADGRRTAYSDDVK / GNNAGTFDV, the assay gave 270 pM (6 of 6 replicates).

Top 5 of the variants detected in all replicates, tightest first:

{"CDR-H1": "GFDLNEYGIS", "CDR-H2": "VIYADGQRTYYADSVK", "CDR-H3": "GNVAGTFDL", "apparent Kd": "32 pM", "replicates with signal": "6 of 6"}
{"CDR-H1": "GFNLDEYGIS", "CDR-H2": "VIYADGVRTAYADSVK", "CDR-H3": "GNVAGTFDV", "apparent Kd": "73 pM", "replicates with signal": "6 of 6"}
{"CDR-H1": "GFNLDEYGIS", "CDR-H2": "VIYADGMRTAYADSVK", "CDR-H3": "GNEAGTFDV", "apparent Kd": "180 pM", "replicates with signal": "6 of 6"}
{"CDR-H1": "GFNLNEYGIS", "CDR-H2": "VIYADGRRSFYSDSVK", "CDR-H3": "GEVAGTFDV", "apparent Kd": "230 pM", "replicates with signal": "6 of 6"}
{"CDR-H1": "GFDLNEYGIS", "CDR-H2": "VIYADGRRTAYSDDVK", "CDR-H3": "GNNAGTFDV", "apparent Kd": "270 pM", "replicates with signal": "6 of 6"}

Source: Li et al. 2023 (doi:10.1038/s41467-023-39022-2), MIT Lincoln Laboratory and A-Alpha Bio; data file from the FLAb repository.